Experiments:
KB cells = assay: in vitro cytotoxicity (WST-8) on KB cells; type: cell-based; conditions: in the presence of 1 μM unconjugated huMOV19
Method: 100 μl/well of each ADC was diluted in RPMI-1640 (Life Technologies) supplemented with heat-inactivated 10% FBS (Life Technologies) and 0.1 mg/ml gentamycin (Life Technologies) in a 96-well plate (Corning, flat bottom) at starting concentrations of 3.5×10^−9 M to 3.5×10^−8 M in triplicate and serially diluted 3-fold in media above at ambient temperature. KB cells (buccal epithelial tumor), grown in EMEM (ATCC) supplemented with heat-inactivated 10% FBS (Life Technologies) and 0.1 mg/ml gentamycin (Life Technologies), were washed once in PBS and removed with 0.05% trypsin-EDTA (Life Technologies). Other cells tested were NCI-H2110 (NSCLC) and T47D (breast epithelial) grown in RPMI-1640 (LifeTechnologies) supplemented with heat-inactivated 10% FBS (Life Technologies) and 0.1 mg/ml gentamycin (Life Technologies). T47D media also was supplemented with 0.2 IU/ml bovine insulin. All cells were resuspended in growth media (see above) to neutralize trypsin and counted on a Coulter counter. […] After incubation, cell viability was analyzed by addition of 20 μl/well WST-8 (Dojindo) and allowed to develop for 2 hr. Absorbance was read on a plate reader at 450 and 620 nm. Absorbances at 620 nm were subtracted from absorbances at 450 nm. Background in wells containing media only was further subtracted from corrected absorbances and surviving fraction (SF) of untreated cells was calculated in Excel. […]

[1] = in vivo tolerability study in CD-1 mice; conditions: female CD-1 mice, intravenous, D2 drug dose
Method: Female CD-1 mice (7 weeks of age) were obtained from Charles River Laboratories.
Mice were randomized into three groups by body weight. The body weights ranged from 25.6 to 24.1 grams with an average of 25 grams. […] Administration of all conjugates was carried out intravenously with a 1.0 ml syringe fitted with a 27 gauge, ½ inch needle. Individual body weights were measured at the indicated time points in FIG. 29 and the % change is graphed vs. time (days). Each line represents the body weight changes of one mouse. Animals that were moribund or experienced body weight loss >20% were sacrificed, as this is defined as an intolerable dose.

| Molecule | antigen-independent potency of the two conjugates (KB cells) | maximum tolerated dose (MTD) [1] |
| --- | --- | --- |
| huMOV19-sSPDB-Compound A (conjugate) heavy: QVQLVQSGAEVVKPGASVKISCKASGYTFTGYFMNWVKQSPGQSLEWIGRIHPYDGDTFYNQKFQGKATLTVDKSSNTAHMELLSLTSEDFAVYYCTRYDGSRAMDYWGQGTTVTVSSASTKGPSVFPLAPSSKSTSGGTAALGCLVKDYFPEPVTVSWNSGALTSGVHTFPAVLQSSGLYSLSSVVTVPSSSLGTQTYICNVNHKPSNTKVDKKV[human IgG1 Fc left out here] light: DIVLTQSPLSLAVSLGQPAIISCKASQSVSFAGTSLMHWYHQKPGQQPRLLIYRASNLEAGVPDRFSGSGSKTDFTLTISPVEAEDAATYYCQQSREYPYTFGGGTKLEIKRTVAAPSVFIFPPSDEQLKSGTASVVCLLNNFYPREAKVQWKVDNALQSGNSQESVTEQDSKDSTYSLSSTLTLSKADYEKHKVYACEVTHQGLSSPVTKSFNRGEC | nearly identical | – |
| huMOV19-D2: lysine-linked conjugate of huMOV19 with D2 (conjugate) heavy: QVQLVQSGAEVVKPGASVKISCKASGYTFTGYFMNWVKQSPGQSLEWIGRIHPYDGDTFYNQKFQGKATLTVDKSSNTAHMELLSLTSEDFAVYYCTRYDGSRAMDYWGQGTTVTVSSASTKGPSVFPLAPSSKSTSGGTAALGCLVKDYFPEPVTVSWNSGALTSGVHTFPAVLQSSGLYSLSSVVTVPSSSLGTQTYICNVNHKPSNTKVDKKV[human IgG1 Fc left out here] light: DIVLTQSPLSLAVSLGQPAIISCKASQSVSFAGTSLMHWYHQKPGQQPRLLIYRASNLEAGVPDRFSGSGSKTDFTLTISPVEAEDAATYYCQQSREYPYTFGGGTKLEIKRTVAAPSVFIFPPSDEQLKSGTASVVCLLNNFYPREAKVQWKVDNALQSGNSQESVTEQDSKDSTYSLSSTLTLSKADYEKHKVYACEVTHQGLSSPVTKSFNRGEC | – | ~0.1 mg/kg |

Source: patent US10988531B2, “Conjugates comprising cell-binding agents and cytotoxic agents” (ImmunoGen, Inc., priority 2014, dated 2021)
